Experimental data reported in patent US20240025949A1, “Beta-Arrestin Effectors and Compositions and Methods of Use Thereof” (Trevena, Inc., priority 2021, published 2024).

Chains of the proteins cited; added tags and fusions are not shown.
UniProt P25095, whole entry: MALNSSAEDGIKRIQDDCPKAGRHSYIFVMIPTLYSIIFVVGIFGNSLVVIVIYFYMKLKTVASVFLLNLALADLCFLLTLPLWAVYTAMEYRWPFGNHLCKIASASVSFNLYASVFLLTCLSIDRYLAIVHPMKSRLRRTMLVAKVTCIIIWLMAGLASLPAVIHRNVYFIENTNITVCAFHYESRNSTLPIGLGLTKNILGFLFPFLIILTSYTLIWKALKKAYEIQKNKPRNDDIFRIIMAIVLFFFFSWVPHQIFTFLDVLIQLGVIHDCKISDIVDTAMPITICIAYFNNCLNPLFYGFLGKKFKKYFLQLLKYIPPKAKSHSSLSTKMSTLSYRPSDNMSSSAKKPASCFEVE

Legend:
Format in all cases: cell-based
[1] = biological target: T1, human AT1R (Homo sapiens, UniProt P30556); test: PathHunter β-arrestin-2 recruitment assay, human AT1R; settings: PathHunter β-arrestin HEK293 cells
T1 construct: ProLink (β-galactosidase enzyme-donor fragment, from the pCMV-ProLink vector)

[2] = biological target: T2, rat AT1aR (Rattus norvegicus, UniProt P25095); test: PathHunter β-arrestin-2 recruitment assay, rat AT1aR; settings: PathHunter β-arrestin HEK293 cells
T2 construct: ProLink (β-galactosidase enzyme-donor fragment, from the pCMV-ProLink vector)

[3] = biological target: T1, human AT1R; test: IP1 accumulation assay (IP-One Tb), human AT1R; settings: cells expressing human AT1R, inactive = EC50 greater than 10 uM
[4] = biological target: T2, rat AT1aR; test: IP1 accumulation assay (IP-One Tb), rat AT1aR; settings: cells expressing rat AT1aR; for EC50 / rat AT1aR IP One EC50 (M): inactive = EC50 greater than 10 uM

Compound | human AT1R b-arrestin2 Max (%) [1] [%] | rat AT1aR b-arrestin2 Max (%) [2] [%] | human AT1R IP One EC50 (M) [3] | rat AT1aR IP One Max (%) [4] [%] | EC50 [4] [µM] | rat AT1aR IP One EC50 (M) [4]
CC[C@H](C)[C@H](NC(=O)[C@H](Cc1c(C)cc(O)cc1C)NC(=O)[C@@H](NC(=O)[C@H](CCCNC(=N)N)NC(=O)CNC)C(C)C)C(=O)N[C@@H](Cc1c[nH]cn1)C(=O)N1CCC[C@H]1C(=O)N[C@H](C)C(=O)O [compound 68] | 39.2 | 59.2 | inactive | 21.2 | 25 | –
CC[C@H](C)[C@H](NC(=O)[C@H](Cc1ccc(O)c(F)c1)NC(=O)[C@@H](NC(=O)[C@H](CCCNC(=N)N)NC(=O)CNC)C(C)C)C(=O)N[C@@H](Cc1c[nH]cn1)C(=O)N1CCC[C@H]1C(=O)N[C@H](C)C(=O)O [compound 69] | 53.9 | 88.3 | inactive | – | – | Inactive
CC[C@H](C)[C@H](NC(=O)[C@H](Cc1ccc(F)cc1)NC(=O)[C@@H](NC(=O)[C@H](CCCNC(=N)N)NC(=O)CNC)C(C)C)C(=O)N[C@@H](Cc1c[nH]cn1)C(=O)N1CCC[C@H]1C(=O)N[C@H](C)C(=O)O [compound 70] | 29.1 | 55.6 | inactive | – | – | Inactive
CC[C@H](C)[C@H](NC(=O)[C@H](Cc1c(F)cc(O)cc1F)NC(=O)[C@@H](NC(=O)[C@H](CCCNC(=N)N)NC(=O)CNC)C(C)C)C(=O)N[C@@H](Cc1c[nH]cn1)C(=O)N1CCC[C@H]1C(=O)N[C@H](C)C(=O)O [compound 71] | 52.7 | 81.7 | inactive | – | – | Inactive
CC[C@H](C)[C@H](NC(=O)[C@H](Cc1ccc(O)c([N+](=O)[O-])c1)NC(=O)[C@@H](NC(=O)[C@H](CCCNC(=N)N)NC(=O)CNC)C(C)C)C(=O)N[C@@H](Cc1c[nH]cn1)C(=O)N1CCC[C@H]1C(=O)N[C@H](C)C(=O)O [compound 72] | 62.6 | 88.6 | inactive | – | – | Inactive
CC[C@H](C)[C@H](NC(=O)[C@H](Cc1cc([N+](=O)[O-])c(O)c([N+](=O)[O-])c1)NC(=O)[C@@H](NC(=O)[C@H](CCCNC(=N)N)NC(=O)CNC)C(C)C)C(=O)N[C@@H](Cc1c[nH]cn1)C(=O)N1CCC[C@H]1C(=O)N[C@H](C)C(=O)O [compound 73] | 46.8 | 77.4 | inactive | 20.8 | – | –
CC[C@H](C)[C@H](NC(=O)[C@H](Cc1cc(Br)c(O)c(Br)c1)NC(=O)[C@@H](NC(=O)[C@H](CCCNC(=N)N)NC(=O)CNC)C(C)C)C(=O)N[C@@H](Cc1c[nH]cn1)C(=O)N1CCC[C@H]1C(=O)N[C@H](C)C(=O)O [compound 74] | 47.8 | 59.0 | inactive | – | – | Inactive
CC[C@H](C)[C@H](NC(=O)[C@H](Cc1ccc(O)c(Cl)c1)NC(=O)[C@@H](NC(=O)[C@H](CCCNC(=N)N)NC(=O)CNC)C(C)C)C(=O)N[C@@H](Cc1c[nH]cn1)C(=O)N1CCC[C@H]1C(=O)N[C@H](C)C(=O)O [compound 75] | 55.0 | 79.3 | inactive | 26.7 | 25 | –
C=CCOc1ccc(C[C@H](NC(=O)[C@@H](NC(=O)[C@H](CCCNC(=N)N)NC(=O)CNC)C(C)C)C(=O)N[C@H](C(=O)N[C@@H](Cc2c[nH]cn2)C(=O)N2CCC[C@H]2C(=O)N[C@H](C)C(=O)O)[C@@H](C)CC)cc1 [compound 76] | 43.0 | 55.5 | inactive | – | – | Inactive
CNCC(=O)N[C@@H](CCCNC(=N)N)C(=O)N[C@H](C(=O)N[C@@H](Cc1ccc(O)c(O)c1)C(=O)N[C@H](C(=O)N[C@@H](Cc1c[nH]cn1)C(=O)N1CCC[C@H]1C(=O)N[C@@H](C)C(=O)O)[C@@H](C)OC)C(C)C [compound 77] | 97.5 | 110.5 | inactive | – | – | Inactive
CNCC(=O)N[C@@H](CCCNC(=N)N)C(=O)N[C@H](C(=O)N[C@@H](Cc1ccc(O)c(F)c1)C(=O)N[C@H](C(=O)N[C@@H](Cc1c[nH]cn1)C(=O)N1CCC[C@H]1C(=O)N[C@@H](C)C(=O)O)[C@@H](C)OC)C(C)C [compound 78] | 71.5 | 91.3 | inactive | – | – | Inactive
CNCC(=O)N[C@@H](CCCNC(=N)N)C(=O)N[C@H](C(=O)N[C@@H](Cc1ccc(O)c(Cl)c1)C(=O)N[C@H](C(=O)N[C@@H](Cc1c[nH]cn1)C(=O)N1CCC[C@H]1C(=O)N[C@@H](C)C(=O)O)[C@@H](C)OC)C(C)C [compound 79] | 64.8 | 93.6 | inactive | – | – | Inactive
CC[C@H](C)[C@H](NC(=O)[C@H](Cc1ccc(O)cc1)NC(=O)[C@@H](NC(=O)[C@H](CCCNC(=N)N)NC(=O)[C@@H](C)NC)C(C)C)C(=O)N[C@@H](Cc1c[nH]cn1)C(=O)N1CCC[C@H]1C(=O)N[C@H](C)C(=O)O [compound 82] | 38.3 | 60.6 | inactive | – | – | Inactive
CCC[C@H](NC(=O)[C@H](Cc1ccc(O)cc1)NC(=O)[C@@H](NC(=O)[C@H](CCCNC(=N)N)NC(=O)CNC)C(C)C)C(=O)N[C@@H](Cc1c[nH]cn1)C(=O)N1CCC[C@H]1C(=O)N[C@H](C)C(=O)O [compound 83] | 34.3 | 70.2 | inactive | – | – | Inactive
CNCC(=O)N[C@@H](CCCNC(=N)N)C(=O)N[C@H](C(=O)N[C@@H](Cc1ccc(O)cc1)C(=O)N[C@H](C(=O)N[C@@H](Cc1c[nH]cn1)C(=O)N1CCC[C@H]1C(=O)N[C@H](C)C(=O)O)[C@@H](C)OC)C(C)C [compound 84] | 50.5 | 80.6 | inactive | – | – | Inactive
